System: RS4-11
Test: Antitumor activity against human RS4;11 cells xenografted in mouse assessed as tumor growth inhibition at 50 mg/kg, iv relative to control
Assay type: functional
Parameters: scale not given: the % may be the effect or the level left

## COc1ccc(Oc2ccc(C)cc2-c2ccsc2S(=O)(=O)NCCNC(=O)Nc2cc(C(F)(F)F)cc(C(F)(F)F)c2)cc1OC
  Activity: 75%

Reference: ChEMBL document CHEMBL6103561, “Chemical dissection of selective myeloid leukemia-1 inhibitors: How they were found and evolved” (Eur J Med Chem, 2025)
